{"source": "patent EP4660190A1", "about": "“PHARMACEUTICALLY ACCEPTABLE SALT OF COMPOUND AND PREPARATION METHOD THEREFOR” (Jiangsu Chia Tai Fenghai Pharmaceutical Co., Ltd., priority 2023, dated 2024)", "key": {"[1]": {"system": "rat spinal cord injury model", "assay": "Rat spinal cord injury model, BBB locomotor scores", "type": "in vivo, Male SD rats", "conditions": "mean±SD"}, "[2]": {"assay": "Solubility of the tromethamine salt in water at different temperatures", "type": "physicochemical", "conditions": "1 g sample in water"}}, "data": [{"substance": "(Z)-3-(1-hydroxybutenyl)benzofuran-2-one tromethamine salt [Example 10]", "values": [{"measurement": "BBB Locomotor Scores", "setting": "[1]; high dose 20 mg/kg ig qd, 3 d after dosing", "value": "0.4± 0.7"}, {"measurement": "BBB Locomotor Scores", "setting": "[1]; high dose 20 mg/kg ig qd, 7 d after dosing", "value": "3.8±2.17"}, {"measurement": "BBB Locomotor Scores", "setting": "[1]; high dose 20 mg/kg ig qd, 14 d after dosing", "value": "6.7±4.9"}, {"measurement": "BBB Locomotor Scores", "setting": "[1]; high dose 20 mg/kg ig qd, 28 d after dosing", "value": "9.3±4.1"}, {"measurement": "BBB Locomotor Scores", "setting": "[1]; high dose 20 mg/kg ig qd, Before dosing", "value": "0± 0"}, {"measurement": "BBB Locomotor Scores", "setting": "[1]; low dose 5 mg/kg ig qd, 3 d after dosing", "value": "0.1± 0.3"}, {"measurement": "BBB Locomotor Scores", "setting": "[1]; low dose 5 mg/kg ig qd, 7 d after dosing", "value": "1.4± 2.1"}, {"measurement": "BBB Locomotor Scores", "setting": "[1]; low dose 5 mg/kg ig qd, 14 d after dosing", "value": "2.2± 3.5"}, {"measurement": "BBB Locomotor Scores", "setting": "[1]; low dose 5 mg/kg ig qd, 28 d after dosing", "value": "4.8± 3.8"}, {"measurement": "BBB Locomotor Scores", "setting": "[1]; low dose 5 mg/kg ig qd, Before dosing", "value": "0± 0"}, {"measurement": "Volume of water for dissolution", "setting": "[2]; 20°C", "value": 25, "unit": "mL"}, {"measurement": "Volume of water for dissolution", "setting": "[2]; 25°C", "value": 20, "unit": "mL"}, {"measurement": "Volume of water for dissolution", "setting": "[2]; 30°C", "value": 14, "unit": "mL"}]}]}
